This test has as its target Serine/threonine-protein kinase pim-1 (Homo sapiens, UniProt P11309). In words: Inhibition of Pim1 (unknown origin) using STK3 as substrate preincubated for 30 mins followed by substrate and ATP addition at > 5000 nM after 45 mins by HTRF assay.

By UniProt entry, the sequences of proteins in these tests, tags left out.
UniProt P11309, whole entry, looked up: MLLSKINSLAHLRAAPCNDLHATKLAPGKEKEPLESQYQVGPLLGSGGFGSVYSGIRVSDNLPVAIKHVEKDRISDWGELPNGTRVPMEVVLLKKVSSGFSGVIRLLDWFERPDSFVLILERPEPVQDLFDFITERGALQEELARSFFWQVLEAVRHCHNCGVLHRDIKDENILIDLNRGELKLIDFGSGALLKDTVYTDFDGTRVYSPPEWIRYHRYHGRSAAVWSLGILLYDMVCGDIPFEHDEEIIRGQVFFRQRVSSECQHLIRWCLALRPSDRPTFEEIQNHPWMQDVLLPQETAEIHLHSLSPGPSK

Molecules are shown by their SMILES. The source made the active and inactive calls. The rule behind the calls is not given here.

For `c1ccc2cc(-c3cnn4ccc(NC5CCCCC5)nc34)ccc2c1`, the inhibition result is “inactive”.

Take `NCCNc1ccn2ncc(-c3cccc(-c4ncc[nH]4)c3)c2n1`: the inhibition result is “inactive”.

Values taken from ChEMBL document CHEMBL2440090, “Discovery of pyrazolo[1,5-a]pyrimidine-based Pim inhibitors: a template-based approach” (Bioorg Med Chem Lett, 2013).
